This is an account of results in patent US7384920B2, “Use of stilbene compounds in the manufacture of medicament for the prevention and treatment of diabetes or retrovirus-associated diseases” (priority 2001, dated 2008).

Where two headings read alike, the source gives them in different places.

The test system of this series is mice. In kind it is in vivo. To be noted: pos.

For the substance “3,3′,4′,5-quadrahydroxystilbene-4′-O-β-D-glucopyranoside [Compound E1]”, the MTD is, setting by setting: (mice ♀) 5625 mg/kg; (mice ♂) 4219 mg/kg.
